This note sets out measurements from patent US8329950B2, “Process for preparation of trans 4-(3,4-Dichlorophenyl)-1,2,3,4-tetrahydro-1Napthalenamine” (Sunovion Pharmaceuticals Inc., priority 2005, dated 2012).

Protein sequences, listed by entry. Tags and fused reporters are not part of them.
UniProt P31652, whole entry: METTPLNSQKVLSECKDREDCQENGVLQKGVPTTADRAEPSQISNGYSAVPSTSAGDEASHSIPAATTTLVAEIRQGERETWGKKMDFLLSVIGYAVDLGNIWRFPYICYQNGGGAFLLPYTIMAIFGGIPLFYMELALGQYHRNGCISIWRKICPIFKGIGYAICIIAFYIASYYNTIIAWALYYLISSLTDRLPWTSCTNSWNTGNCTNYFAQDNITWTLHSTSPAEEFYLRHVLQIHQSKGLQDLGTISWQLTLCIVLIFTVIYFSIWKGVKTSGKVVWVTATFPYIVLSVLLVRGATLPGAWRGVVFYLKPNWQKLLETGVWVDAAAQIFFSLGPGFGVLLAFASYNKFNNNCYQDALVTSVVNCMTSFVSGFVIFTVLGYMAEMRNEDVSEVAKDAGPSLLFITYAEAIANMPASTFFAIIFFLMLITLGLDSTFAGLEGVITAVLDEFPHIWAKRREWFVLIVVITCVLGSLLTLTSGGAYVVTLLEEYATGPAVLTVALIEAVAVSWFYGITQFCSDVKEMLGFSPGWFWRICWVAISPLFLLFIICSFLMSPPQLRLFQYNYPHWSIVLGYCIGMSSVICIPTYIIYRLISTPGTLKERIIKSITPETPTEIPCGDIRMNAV

The test has as its target T1, functional uptake of serotonin (5-HT) (Rattus norvegicus, UniProt P31652).
T1 construct: synaptosomes isolated in a 0.32 M sucrose buffer from a male Wistar rat cortex; from tissue; host or cells: male Wistar rat cortex (whole brain) synaptosomes
In words: Serotonin functional uptake assay in rat synaptosomes. The test is classed as biochemical. To be noted: Table 6; tested initially at 10 μM.

Molecules are shown by their SMILES.

Take `CNCCCC1c2ccccc2C=Cc2ccccc21` [protriptyline]: the “inhibition of 5-HT uptake” value is “— (— <50% inhibition)”.
